The term inhibition denotes the relative decrease from the control value, in per cent.

Only a part is listed here, and it is no random draw. Activity calls are given as the source filed them.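 The calls were made as follows: active = inhibition above 30.3% in the primary screen of four-compound pools, then above 30% when the compound was retested; inconclusive = passed the primary limit but could not be retested; inactive = the rest.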

This assay is described as follows: clotrimazole potentiators killing C. albicans biofilm, primary screen, 4-compound mixtures (AID 1242).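 Also: compounds exposed to preformed 24 h biofilms for 48 h; 0% = untreated biofilm control and 100% = clotrimazole plus chlorhexidine kill blank.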 The conditions noted are these: C. albicans biofilm persisters + clotrimazole, fluorescence viability; primary screen in compound mixtures of four per well; at 7.6 µM; hits give high values. The gist of the method: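 Test system: C. albicans CAF4-2 wild-type biofilms; buffer or medium: RPMI/MOPS medium, pH 7.0; schedule: 24 h biofilm formation, then 48 h compound exposure, 37 °C; detection: Alamar Blue fluorescence; measure: percent inhibition of biofilm viability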
In the case of `CCCOc1ccc(NP(C)(=O)Oc2ccc(Cl)cc2)cc1` (stereo unspecified), the inhibition is inactive: -1.7%.

The record behind these values is PubChem BioAssay AID1242 (PCMD, 2008).
